Results as given in US9440982B2 (Eolas Therapeutics, Inc., priority 2012, dated 2016).

Protein sequences, listed by entry. Tags and fused reporters are not part of them.
UniProt O43614, whole entry: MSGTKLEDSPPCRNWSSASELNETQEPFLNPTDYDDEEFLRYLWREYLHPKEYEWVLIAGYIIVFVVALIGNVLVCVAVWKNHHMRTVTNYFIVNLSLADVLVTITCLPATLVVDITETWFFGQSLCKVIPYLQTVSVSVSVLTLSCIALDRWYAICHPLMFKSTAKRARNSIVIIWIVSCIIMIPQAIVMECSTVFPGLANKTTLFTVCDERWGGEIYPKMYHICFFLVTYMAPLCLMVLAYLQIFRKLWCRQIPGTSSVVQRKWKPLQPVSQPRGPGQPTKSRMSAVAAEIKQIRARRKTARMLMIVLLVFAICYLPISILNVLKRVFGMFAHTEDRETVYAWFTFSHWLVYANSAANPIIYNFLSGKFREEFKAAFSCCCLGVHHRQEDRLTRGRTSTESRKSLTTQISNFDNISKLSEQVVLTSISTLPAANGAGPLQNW

Target: T1, OX2 (Homo sapiens, UniProt O43614)
T1 construct: expressed in transfected cells; host or cells: CHO (CHO-OX2, kept under selection antibiotic)
Test: Orexin receptor cell-based functional assay, [Ca2+]i by FLIPR, CHO-OX2 cells
Conditions: CHO-OX2 cells, [Ca2+]i by FLIPR, antagonist dose-range 0.1 nM-10 μM, EC90 of OXA; read-out: OX2

Row | SMILES | IC50
1 | Cc1ccc(-n2cccn2)c(C(=O)N2CCC[C@@H](C)[C@H]2CNc2ccc(C(F)(F)F)nn2)c1 [Example A157, ((2S,3R)-3-mMethyl-2-(((6-(trifluoromethyl)pyridazin-3-yl)amino)methyl)piperidin-1-yl)(5-methyl-2-(1H-pyrazol-1-yl)phenyl)methanone] | > 5 µM
2 | Cc1ccc(-n2nccn2)c(C(=O)N2CCC[C@@H](C)[C@H]2CNc2ncc3ccc(C)cc3n2)c1 [Example A215, ((2S,3R)-3-Methyl-2-(((7-methylquinazolin-2-yl)amino)methyl)piperidin-1-yl)(5-methyl-2-(2H-1,2,3-triazol-2-yl)phenyl)methanone] | 1.3 µM
3 | C[C@@H]1CCCN(C(=O)c2cc(F)ccc2-n2nccn2)[C@@H]1CNc1ccc(C(F)(F)F)cn1 [Example A310] | > 5 µM
4 | Cc1ccc(C(=O)N2CCC[C@@H](C)[C@H]2CNc2ccc(C(F)(F)F)cn2)c(-n2nccn2)c1 [Example A273, ((2S,3R)-3-Methyl-2-(((5-(trifluoromethyl)pyridin-2-yl)amino)methyl)piperidin-1-yl)(4-methyl-2-(2H-1,2,3-triazol-2-yl)phenyl)methanone] | 4.4 µM
5 | Cc1ccc(-c2ccccn2)c(C(=O)N2CCC[C@@H](C)[C@H]2CNc2nnc(C(F)(F)F)s2)c1 [Example A151, ((2S,3R)-3-Methyl-2-(((5-(trifluoromethyl)-1,3,4-thiadiazol-2-yl)amino)methyl)piperidin-1-yl)(5-methyl-2-(pyridin-2-yl)phenyl)methanone] | > 5 µM
6 | Cc1nc(C(=O)N2CCC[C@H](C)[C@H]2CNc2ccc(C(F)(F)F)cn2)c(-c2ccc(F)cc2)s1 (racemic) [Example A65, rac-trans-(5-(4-Fluorophenyl)-2-methylthiazol-4-yl)(3-methyl-2-(((5-(trifluoromethyl)pyridin-2-yl)amino)methyl)piperidin-1-yl)methanone] | 0.038 µM
7 | C[C@@H]1CCCN(C(=O)c2cccc(F)c2-c2ncccn2)[C@@H]1CNc1ncc(C(F)(F)F)cn1 [Example A230, (3-Fluoro-2-(pyrimidin-2-yl)phenyl)((2S,3R)-3-methyl-2-(((5-(trifluoromethyl)pyrimidin-2-yl)amino)methyl)piperidin-1-yl)methanone] | > 5 µM
8 | Cc1ccc(-c2ccccn2)c(C(=O)N2CCC[C@@H](C)[C@H]2CNc2ccc(Cl)cn2)n1 [Example A169, ((2S,3R)-2-(((5-Chloropyridin-2-yl)amino)methyl)-3-methylpiperidin-1-yl)(6′-methyl-[2,3′-bipyridin]-2′-yl)methanone] | > 5 µM
9 | C[C@@H]1CCCN(C(=O)c2cccc(F)c2-n2nccn2)[C@@H]1CNc1ccc(Cl)cn1 [Example A254, ((2S,3R)-2-(((5-Chloropyridin-2-yl)amino)methyl)-3-methylpiperidin-1-yl)(3-fluoro-2-(2H-1,2,3-triazol-2-yl)phenyl)methanone] | > 5 µM
10 | Cc1ccc(-n2nccn2)c(C(=O)N2CCC[C@@H](C)[C@H]2CNc2ncc(C#N)cc2F)n1 [Example A193, 5-Fluoro-6-((((2S,3R)-3-methyl-1-(6-methyl-3-(2H-1,2,3-triazol-2-yl)picolinoyl)piperidin-2-yl)methyl)amino)nicotinonitrile] | > 5 µM
11 | Cc1ccc(NC[C@@H]2[C@H](C)CCCN2C(=O)c2nc(C)ccc2-n2nccn2)nc1 [Example A196, ((2S,3R)-3-Methyl-2-(((5-methylpyridin-2-yl)amino)methyl)piperidin-1-yl)(6-methyl-3-(2H-1,2,3-triazol-2-yl)pyridin-2-yl)methanone] | > 5 µM

Results, then the compound that gave them:

Row | IC50 | SMILES
12 | > 5 µM | Cc1ccc(-n2ccc(C)n2)c(C(=O)N2CCC[C@@H](C)[C@H]2CNc2ccc(C(F)(F)F)nn2)c1 [Example A130, ((2S,3R)-3-Methyl-2-(((6-(trifluoromethyl)pyridazin-3-yl)amino)methyl)piperidin-1-yl)(5-methyl-2-(3-methyl-1H-pyrazol-1-yl)phenyl)methanone]
13 | > 5 µM | Cc1ccc(-n2nccn2)c(C(=O)N2CCC[C@@H](C)[C@H]2CNc2nnc(C(F)(F)F)s2)n1 [Example A191, ((2S,3R)-3-Methyl-2-(((5-(trifluoromethyl)-1,3,4-thiadiazol-2-yl)amino)methyl)piperidin-1-yl)(6-methyl-3-(2H-1,2,3-triazol-2-yl)pyridin-2-yl)methanone]
14 | > 5 µM | Cc1ccc(-c2ccccn2)c(C(=O)N2CCC[C@@H](C)[C@H]2CNc2ccc(C(F)(F)F)cn2)n1 [Example A217, ((2S,3R)-3-Methyl-2-(((5-(trifluoromethyl)pyridin-2-yl)amino)methyl)piperidin-1-yl)(6′-methyl-[2,3′-bipyridin]-2′-yl)methanone]
15 | > 5 µM | Cc1ccc(-c2ccccn2)c(C(=O)N2CCC[C@@H](C)[C@H]2CNc2ccc(C(F)(F)F)nn2)n1 [Example A165, ((2S,3R)-3-methyl-2-(((6-(trifluoromethyl)pyridazin-3-yl)amino)methyl)piperidin-1-yl)(6′-methyl-[2,3′-bipyridin]-2′-yl)methanone]
16 | > 5 µM | C[C@@H]1CCCN(C(=O)c2cc(F)c(F)cc2-c2ncccn2)[C@@H]1CNc1ncc(C(F)(F)F)cn1 [Example A243, (4,5-Difluoro-2-(pyrimidin-2-yl)phenyl)((2S,3R)-3-methyl-2-(((5-(trifluoromethyl)pyrimidin-2-yl)amino)methyl)piperidin-1-yl)methanone]
17 | 0.26 µM | Cc1ccc(-c2ncccn2)c(C(=O)N2CCC[C@@H](C)[C@H]2CNc2nc3ccccc3o2)c1 [Example A204, ((2S,3R)-2-((Benzo[d]oxazol-2-ylamino)methyl)-3-methylpiperidin-1-yl)(5-methyl-2-(pyrimidin-2-yl)phenyl)methanone]
18 | > 5 µM | Cc1ccc(-c2ncccn2)c(C(=O)N2CCC(F)(F)C[C@H]2CNc2ncc(C(F)(F)F)cn2)c1 [Example A312, (S)-(4,4-Difluoro-2-(((5-(trifluoromethyl)pyrimidin-2-yl)amino)methyl)piperidin-1-yl)(5-methyl-2-(pyrimidin-2-yl)phenyl)methanone]
19 | > 5 µM | C[C@@H]1CCCN(C(=O)c2c(-n3nccn3)ccc(F)c2F)[C@@H]1CNc1ccc(C(F)(F)F)cn1 [Example A336, (2,3-Difluoro-6-(2H-1,2,3-triazol-2-yl)phenyl)((2S,3R)-3-methyl-2-(((5-(trifluoromethyl)pyridin-2-yl)amino)m*ethyl)piperidin-1-yl)methanone]

Same assay, conditions: Table 2; CHO-OX2 cells, EC90 of OXA; read-out: IC50 Bioactivity OX2

Row | IC50 | SMILES
20 | > 4 µM | CC[C@@H]1CCCN(C(=O)c2nc(C)sc2-c2ccc(F)cc2)[C@@H]1CNc1ccc(C(F)(F)F)cn1 (racemic) [Example 76, rac-cis-(3-Ethyl-2-(((5-(trifluoromethyl)pyridin-2-yl)amino)methyl)piperidin-1-yl)(5-(4-fluorophenyl)-2-methylthiazol-4-yl)methanone]
21 | > 10 µM | Cc1nc(C(=O)N2CCC[C@@H](C)[C@H]2CNc2nccc(Cl)n2)c(-c2ccc(F)cc2)s1 (racemic) [Example 20, rac-cis-(2-(((4-Chloropyrimidin-2-yl)amino)methyl)-3-methylpiperidin-1-yl)(5-(4-fluorophenyl)-2-methylthiazol-4-yl)methanone]
22 | > 10 µM | Cc1ccc(-c2ccnn2C)c(C(=O)N2CCC[C@@H](C)[C@H]2CNc2ccc(C(F)(F)F)cn2)c1 (racemic) [Example 108, rac-cis-(3-Methyl-2-(((5-(trifluoromethyl)pyridin-2-yl)amino)methyl)piperidin-1-yl)(5-methyl-2-(1-methyl-1H-pyrazol-5-yl)phenyl)methanone]
